# Target: T1, AKT2 (Homo sapiens, UniProt P31751)
# Chains of the proteins cited; added tags and fusions are not shown. Lines headed by an entry give the natural chain unless they say otherwise; changes in a name come on top.
# UniProt P31751: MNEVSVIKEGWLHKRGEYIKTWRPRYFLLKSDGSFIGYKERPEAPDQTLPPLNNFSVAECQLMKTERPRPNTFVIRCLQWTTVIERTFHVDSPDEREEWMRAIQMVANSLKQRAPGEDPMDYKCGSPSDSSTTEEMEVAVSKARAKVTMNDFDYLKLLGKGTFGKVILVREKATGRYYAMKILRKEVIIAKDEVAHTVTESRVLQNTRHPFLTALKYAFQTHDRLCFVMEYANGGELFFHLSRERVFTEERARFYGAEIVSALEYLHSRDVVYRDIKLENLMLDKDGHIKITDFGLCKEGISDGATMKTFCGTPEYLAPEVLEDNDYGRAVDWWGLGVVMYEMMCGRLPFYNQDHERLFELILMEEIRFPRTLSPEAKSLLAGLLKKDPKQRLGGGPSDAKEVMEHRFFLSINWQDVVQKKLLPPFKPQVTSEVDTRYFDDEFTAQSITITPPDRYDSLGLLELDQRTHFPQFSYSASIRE
# T1 construct: purchased Carna 01-102
# Experiment: In vitro enzyme activity test (HTRF kinEASE TK), AKT2
# Type: biochemical
# Conditions: ATP 20 μM, enzyme 0.1 ng/well, reaction 50 min
# Procedure: Experimental Procedure 2.1 Preparation of Reagents
# 1 mL 1× Kinase Reaction Buffer of Kinase AKT1, AKT2 and AKT3 contain 200 μL 5× Kinase Reaction Buffer, 5 μL 1 M MgCl2, 1 μL 1 M DTT and 794 μL ultrapure water.
# In addition to the control wells, 4 μL of the diluted compound working solutions were added to all reaction wells.
# b) 2 μL of the previously prepared TK-biotin substrate solution was added to all reaction wells.
# c) 2 μL of the previously prepared enzyme solution was added to all reaction wells, except the negative wells. The volume of the negative well was filled with 2 μL of enzyme corresponding to 1× kinase reaction buffer. The plate was sealed with sealing film. After mixing, the plate was incubated at room temperature for 10 min to allow the compound and enzyme to fully combined.
# d) 2 μL of ATP solution was added to all reaction wells to start the kinase reaction.
# e) The test solution was prepared 5 min before the end of the kinase reaction.
# f) After the kinase reaction was completed, 5 μL of diluted streptavidin-XL665 were added to all reaction wells, and immediately the diluted europium-labeled tyrosine kinase substrate antibody detection solution was added after mixing.
# g) The plate was sealed and mixed well. […] The inhibition rate of each well was calculated through the fully active wells and the background signal wells, taking the average value in case of multiple wells. […]
compound,measurement,value
"C[C@@H]1CC(=O)Nc2ncnc(N3CCN(C(=O)[C@H](CNC4CC4)c4ccc(Cl)cc4)[C@H]4C[C@H]43)c21 (single isomer, unassigned) [Example 37 Isomer 1]",IC50,≥ 1000 nM
